In general, IC50 refers to the concentration that inhibits the measured activity by half.

Chains of the proteins cited; added tags and fusions are not shown. Residues count along the entry.
UniProt P10721, 546-976 limits assumed: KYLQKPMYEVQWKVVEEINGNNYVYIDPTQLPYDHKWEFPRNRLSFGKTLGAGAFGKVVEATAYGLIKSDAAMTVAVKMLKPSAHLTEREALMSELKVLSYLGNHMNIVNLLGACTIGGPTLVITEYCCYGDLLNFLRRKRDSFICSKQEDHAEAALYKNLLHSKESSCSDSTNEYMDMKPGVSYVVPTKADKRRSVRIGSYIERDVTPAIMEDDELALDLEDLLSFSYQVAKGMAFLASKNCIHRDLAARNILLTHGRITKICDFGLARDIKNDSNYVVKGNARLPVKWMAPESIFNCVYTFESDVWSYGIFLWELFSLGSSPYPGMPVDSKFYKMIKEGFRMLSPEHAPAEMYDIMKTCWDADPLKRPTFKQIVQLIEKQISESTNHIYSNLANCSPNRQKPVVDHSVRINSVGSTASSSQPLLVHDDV

SMILES strings stand for the structures. Read-outs that look alike come from different tables or passages of the source.

For test [1], the target named is recombinant human KIT tyrosine kinase protein (Homo sapiens (Human), UniProt P10721). In words: KIT tyrosine kinase assay (ADP-Glo). On the technique in general: In ADP-Glo the light output rises with the ADP produced.
In test [2] the test system is M-07e cells. As to the kind of experiment: SCF-dependent M-07e cell proliferation assay. Particulars: read-out: M-07e IC50, 3 days, CellTiter Glo. The procedure:
SCF-dependent cell proliferation assay was developed to measure the inhibitory potency of the compounds in M-07e cells, which express wild-type human KIT protein. The assay was performed in 96-well plates and the IC50 of each KIT inhibitor was determined by CellTiter Glo Assay reagent and Victor X5 Multilabel Counter (Perkin Elmer).
M-07e cells were purchased from AcceGen Biotechnology. Cells were maintained with M-07e Growth medium: RPMI-1640 containing 20% FBS, 100 U/mL penicillin and 100 microgram/mL streptomycin, 10 ng/mL rhGM-CSF, 10 ng/mL rhSCF. M-07e cells were seeded at a density of 5000 cells/90 μL/well in 96-well plates. Test compounds were dissolved in 100% DMSO to make 20 mM stock solution and serially diluted 1:3 with 100% DMSO to make an 11-point dilution series with concen-trations from […] to 0.024 μM. The serially diluted compounds were then each diluted 1:50 with culture medium to obtain assay compound solutions containing 2% DMSO. Ten μL of assay compound solutions were added to the 90 μL of culture cell suspension in the 96-well plate, with a final DMSO concentration of 0.2%. The plates were then incubated in a 5% CO2 incubator at 37° C. for 3 days. To obtain Day Zero Controls for background calculation, cells were seeded at 5000 cells/100 μL in a new 96-well plate and processed on the same day. Both Day Zero controls and 3 day culture plates were then treated as follows. 100 μL of CellTiter Glo Assay reagent was added to each well and the plate was incubated at room temperature for 15 min on a shaker at 200-300 RPM. Then 100 μL of cell lysate samples were transferred to white wall 96-well plates and luminescence was measured by a plate reader. The luminescence of Day Zero Control was subtracted from the luminescence intensity of 3 day culture readings. The assay control for this experiment was cells treated with 0.2% DMSO in culture medium and wells with 100 μL of culture medium (0.2% DMSO without cells) were used as the blank for data analysis.
The IC50 value of each compound was determined by using % inhibition by nor-malizing inhibition in DMSO treated control wells to 0% using the following formula method: […]
Plot percent inhibition in proliferation of triplicates against the respective concen-trations of compound and fit the dose response curve using the sigmoidal dose response equation to generate the IC50 in GraphPad Prism 8 software.
A general note: In ATP-based viability assays light output follows the ATP content of the culture.

As to `CN(c1cnc(CNC(=O)c2ccc3c(c2)[nH]c(=O)n3C)cn1)C1CC(F)(F)C1`, the IC50 in test [1] (read-out: KIT IC50, Table 98) amounted to 60 nM; in test [2], 1200 nM.

Take `COCC(C)N(C)c1ccc(CNC(=O)c2ccc3c(c2)[nH]c(=O)n3C)cn1` (centres unmarked): the IC50 in test [1] (read-out: KIT IC50, Table 99) was 81 nM; in test [2], 407 nM.

As for `CN(c1ccc(CNC(=O)c2ccc3c(c2)[nH]c(=O)n3C)cn1)C(C)(C)C`, the IC50 in test [1] (read-out: KIT IC50, Table 98) was determined as 95 nM; in test [2], 610 nM.

Regarding `CN(c1cnc(CNC(=O)c2ccc3c(c2)[nH]c(=O)n3C)cn1)C1CCC(F)(F)CC1`, the IC50 in test [1] (read-out: KIT IC50, Table 98) was 54 nM; in test [2], 250 nM.

Source of the values: patent publication US20260042747A1, “KIT INHIBITORS, COMPOUNDS, PHARMACEUTICAL COMPOSITIONS, AND METHODS OF USE THEREOF” (Alivexis, Inc., priority 2022, published 2026).
